One compound from PubChem BioAssay AID1347076 (National Center for Advancing Translational Sciences (NCATS), 2019) can be followed below.

This is a selection; strong and weak results do not stand in their true shares. Results filed as inconclusive are left out. Calls of active or inactive are those of the source. The call rests on the fitted dose curve; in most records, active means well fitted cell-killing curve with a large enough effect; inconclusive means small, poorly fitted or top-dose-only effect, or effect the other way; inactive means flat fitted curve, though single readings scatter.
On the % scale 0 is the no-effect control and ±100 the full control effect.

A short description of the test: qHTS assay for MDR1-selective chemotherapeutics: Primary screen using the drug-selected MDR subline cells KB-V1. Further: nearly all actives have a fitted effect of over 60% in size. Conditions: KB-V1 MDR cells viability, CellTiter-Glo, 72 h; at 46.1 µM (top of the series). An excerpt: A prime difficulty in effectively treating cancer is the development of cellular resistance to multiple structurally unrelated anticancer drugs, a phenomenon known as multidrug resistance (MDR). […] Numerous strategies to overcome P-gp-mediated MDR have been explored, including the design of drugs that evade recognition and efflux, and development of inhibitors to block efflux and restore drug accumulation. […] An alternative approach is to exploit resistance by identifying drugs that target MDR cells over the non-resistant parental cells from which they were selected. […]
Our goal is to identify compounds that selectively kill P-gp-expressing MDR cells. […] This assay will be utilized to conduct a quantitative high-throughput screen (qHTS) in collaboration with the NIH Chemical Genomics Center to identify selective agents, and probe hits arising from the screen will be validated using secondary assays and characterized through a well-established follow-up research program. […]
Briefly, 5 microL of media containing either KB-V1 cells (columns 1-2, 4-48) are dispensed into Greiner white, treated solid-bottom 1536-well assay plates (media-only control is added to column 3). […] CellTiter-Glo (2.5 µL/well) is then added, and the plates are read in a ViewLux reader (Perkin-Elmer, clear luminescence filter, 1 second exposure, 1x binning) following a 10 minute incubation. […]
(In general: qHTS replaces the single test concentration by a dilution series.)
Take `CCC(=O)N(c1ccccc1)C1(COC)CCN(CCc2cccs2)CC1`: the activity change, negative = cytotoxicity was inactive: -19.2%.
